Patent US20240238269A1, “USE OF 5-NITRO-8-HYDROXYQUINOLINE” (Jiangsu Yahong Meditech Co., Ltd., priority 2021, published 2024)

Experiments:
[1] = dog, in vivo
[2] = system: human papillomavirus (HPV); assay: Antiviral activity against human papillomavirus (HPV), overall conclusion; assay type: cell-based; conditions: inferred from conversion in dogs
Description: When the SI50 value>10, the compound was determined to be active against the virus.

## CC(C)C(=O)N1CCC[C@H]1C(=O)OCOc1ccc([N+](=O)[O-])c2cccnc12 [prodrug, (S)-(5-nitroquinolin-8-yloxy)methyl 1-isopropionylpyrrolidine-2-carboxylate]
[1]
  conversion to the active form 5-nitro-8-hydroxyquinoline: conversion to the active form 5-nitro-8-hydroxyquinoline was detected in circulating samples
[2]
  anti-HPV effect relative to 5-nitro-8-hydroxyquinoline: equivalent in anti-HPV effect
